Reference: patent US20220411487A1 (Regeneron, published 2022)

What was measured:
[1] = molecular target: T1, full length mouse TMPRSS6 on HEK293 cells (HEK293/mTMPRSS6) (mouse, UniProt Q9DBI0 1-811); assay: flow cytometry, HEK293 cells expressing target
T1 construct: line sorted for high expression
T1 sequence: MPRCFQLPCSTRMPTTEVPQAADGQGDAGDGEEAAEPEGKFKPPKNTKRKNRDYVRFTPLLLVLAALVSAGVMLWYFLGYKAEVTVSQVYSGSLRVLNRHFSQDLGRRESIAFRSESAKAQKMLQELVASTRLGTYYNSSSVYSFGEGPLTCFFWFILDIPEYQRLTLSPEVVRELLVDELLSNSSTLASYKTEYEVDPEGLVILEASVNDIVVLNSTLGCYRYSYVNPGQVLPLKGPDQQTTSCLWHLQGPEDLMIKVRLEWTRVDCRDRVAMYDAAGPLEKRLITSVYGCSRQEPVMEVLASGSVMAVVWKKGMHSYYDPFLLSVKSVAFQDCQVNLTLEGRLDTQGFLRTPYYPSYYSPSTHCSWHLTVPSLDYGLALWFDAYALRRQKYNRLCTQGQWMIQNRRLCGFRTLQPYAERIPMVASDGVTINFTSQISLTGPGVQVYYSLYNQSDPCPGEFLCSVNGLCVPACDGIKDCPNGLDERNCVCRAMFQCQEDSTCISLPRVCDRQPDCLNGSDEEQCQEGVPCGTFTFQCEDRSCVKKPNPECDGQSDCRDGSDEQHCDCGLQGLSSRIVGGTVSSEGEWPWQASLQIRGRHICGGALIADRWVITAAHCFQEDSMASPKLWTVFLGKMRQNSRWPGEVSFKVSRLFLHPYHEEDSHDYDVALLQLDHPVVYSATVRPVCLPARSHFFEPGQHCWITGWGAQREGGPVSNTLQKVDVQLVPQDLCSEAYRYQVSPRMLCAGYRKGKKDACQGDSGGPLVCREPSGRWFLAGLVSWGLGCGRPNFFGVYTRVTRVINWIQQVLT
Description: (§1) To assess the binding of anti-TMPRSS6 antibodies of the present disclosure to the receptor expressed on the cell surface, antibodies (including an IgG subclass control) were serially diluted in assay buffer (PBS without Ca⁺⁺ and Mg⁺⁺ containing 2% FBS) from 375 nM to 22.9 pM (plus a sample containing assay buffer alone without test molecule) and incubated with 0.5×10⁶ cells/well at 4° C. for 30 minutes in assay buffer. […] Cells were fixed using BD CytoFix™ (Becton Dickinson, #554655) and analyzed on either the IQue® or IQue®Plus Flow Cytometers (Intellicyt®). Unstained and secondary antibody alone controls were also tested for all cell lines. The results were analyzed using ForeCyt® (IntelliCyt®) software to determine the geometric means of fluorescence for viable cells and binding ratio was calculated by normalizing the geometric mean value of the test condition by the geometric mean value of the corresponding unstained cells.

[2] = molecular target: T2, full length cynomolgous monkey TMPRSS6 on HEK293 cells (HEK293/mfTMPRSS6) (cynomolgous monkey/Macaca fascicularis, UniProt Q8IU80 10-811 (human entry)); assay: flow cytometry, HEK293 cells expressing target
T2 chain: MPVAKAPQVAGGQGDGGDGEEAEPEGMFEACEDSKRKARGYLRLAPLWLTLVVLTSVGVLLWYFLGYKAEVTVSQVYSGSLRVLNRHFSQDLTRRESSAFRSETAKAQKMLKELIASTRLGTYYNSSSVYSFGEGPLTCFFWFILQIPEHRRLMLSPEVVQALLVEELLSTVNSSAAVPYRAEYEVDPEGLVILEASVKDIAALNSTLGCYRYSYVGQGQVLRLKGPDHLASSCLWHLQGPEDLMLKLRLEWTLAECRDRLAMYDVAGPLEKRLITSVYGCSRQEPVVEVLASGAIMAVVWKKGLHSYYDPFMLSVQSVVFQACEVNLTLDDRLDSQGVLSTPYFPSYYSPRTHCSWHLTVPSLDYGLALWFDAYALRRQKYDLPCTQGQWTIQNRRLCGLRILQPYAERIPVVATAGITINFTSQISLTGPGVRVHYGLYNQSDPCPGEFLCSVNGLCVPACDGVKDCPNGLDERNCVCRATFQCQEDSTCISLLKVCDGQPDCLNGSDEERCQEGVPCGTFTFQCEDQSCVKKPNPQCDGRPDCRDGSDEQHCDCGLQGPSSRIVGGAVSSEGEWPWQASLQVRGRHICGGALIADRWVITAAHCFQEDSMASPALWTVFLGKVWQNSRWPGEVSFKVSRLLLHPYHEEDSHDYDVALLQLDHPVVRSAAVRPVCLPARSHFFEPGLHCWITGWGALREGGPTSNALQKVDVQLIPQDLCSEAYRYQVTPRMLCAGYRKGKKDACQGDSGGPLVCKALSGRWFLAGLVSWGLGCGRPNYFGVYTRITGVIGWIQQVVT
Description: as §1

[3] = molecular target: T3, full length human TMPRSS6 with a C-terminal triple myc tag on HEK293.hHJV cells (HEK293.hHJV/3xMyc.hTMPRSS6) (human, UniProt Q8IU80 1-811); assay: cell-based or functional assay
T3 sequence: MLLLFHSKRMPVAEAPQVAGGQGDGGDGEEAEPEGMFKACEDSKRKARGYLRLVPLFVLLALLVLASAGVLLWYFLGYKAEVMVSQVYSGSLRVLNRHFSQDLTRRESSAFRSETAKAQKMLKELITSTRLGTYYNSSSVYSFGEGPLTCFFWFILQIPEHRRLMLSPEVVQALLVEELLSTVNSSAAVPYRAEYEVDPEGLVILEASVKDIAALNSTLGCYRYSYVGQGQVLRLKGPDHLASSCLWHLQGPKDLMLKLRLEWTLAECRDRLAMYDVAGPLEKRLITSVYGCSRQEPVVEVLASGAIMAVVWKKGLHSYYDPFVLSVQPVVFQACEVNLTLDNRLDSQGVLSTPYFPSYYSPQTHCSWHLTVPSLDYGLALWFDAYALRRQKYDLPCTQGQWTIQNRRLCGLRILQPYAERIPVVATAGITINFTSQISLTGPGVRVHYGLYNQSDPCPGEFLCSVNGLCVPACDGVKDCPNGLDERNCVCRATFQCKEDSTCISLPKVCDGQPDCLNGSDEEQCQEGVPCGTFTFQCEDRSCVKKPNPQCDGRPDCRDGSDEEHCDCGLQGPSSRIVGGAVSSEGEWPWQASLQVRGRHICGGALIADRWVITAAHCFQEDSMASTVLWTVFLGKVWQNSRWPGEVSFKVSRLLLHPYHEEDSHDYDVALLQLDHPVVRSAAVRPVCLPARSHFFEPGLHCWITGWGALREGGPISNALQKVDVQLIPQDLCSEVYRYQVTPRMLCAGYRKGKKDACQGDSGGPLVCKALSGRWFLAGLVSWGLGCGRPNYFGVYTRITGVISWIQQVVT

EC50 [1]: 0.035 µM
Max. Fold Binding [1]: 42 fold over unstained control
EC50 [2]: 0.0033 µM
Max. Fold Binding [2]: 91 fold over unstained control
Geometric Mean Fluorescence Intensity of cell surface hHJV, 50 nM mAb [3]: 46100
Median Fluorescence Intensity of cell surface hHJV, 50 nM mAb [3]: 63500
B1: REGN7973 (antibody, human IgG4 S228P, kappa, V domains shown)
VH: EVQLVESGGGLVKPGGSLRLSCAASGFTFSNAWMSWVRQAPGKGLEWVGRIKSKTDSGTTDYAAPVKGRFTISRDDSKNTLYLQMNSLKTEDTAVYYCTTVDNDFWSGYYNWFDPWGQGTLVTVSS
VL: [gap - about 100 residues]
notes: fully human; human IgG4 Fc with hinge S108P; also called mAb37777
